Laboratory results reported in patent US20260191900A1, “Biofilm Treatment” (Phytoceutical Limited, priority 2022, published 2026).

Settings: DLS at 20° C.

With “tocopheryl polyethylene glycol succinate [TPGS]” the “average (mean) particle size (diameter)” value was 8.82 nm and the “polydispersity index (PI)” value was 0.047.
